Measurements from PubChem BioAssay (NCI).
Some of these compounds have results that are not shown, active ones among them.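 In this assay, cells in 96-well plates receive the compound at five concentrations for 48 hours. Endpoints are linearly interpolated between the surrounding concentrations. GI50 marks 50% less growth.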

Legend:
Assay in all cases: NCI-60 cell line screen, 48 h; in the data active means GI50 below about 0.43 µM; inactive means the rest
786-0 renal = test system: 786-0 renal
A498 renal = test system: A498 renal
A549 NSCLC = test system: A549 NSCLC
ACHN renal = test system: ACHN renal
BT-549 breast = test system: BT-549 breast
CAKI-1 renal = test system: CAKI-1 renal
CCRF-CEM leukemia = test system: CCRF-CEM leukemia
COLO 205 colon = test system: COLO 205 colon
DU-145 prostate = test system: DU-145 prostate
EKVX NSCLC = test system: EKVX NSCLC
HCC-2998 colon = test system: HCC-2998 colon
HCT-116 colon = test system: HCT-116 colon
HCT-15 colon = test system: HCT-15 colon
HL-60(TB) leukemia = test system: HL-60(TB) leukemia
HOP-62 NSCLC = test system: HOP-62 NSCLC
HOP-92 NSCLC = test system: HOP-92 NSCLC
HS 578T breast = test system: HS 578T breast
HT29 colon = test system: HT29 colon
IGROV1 ovarian = test system: IGROV1 ovarian
K-562 leukemia = test system: K-562 leukemia
KM12 colon = test system: KM12 colon
LOX IMVI melanoma = test system: LOX IMVI melanoma
M14 melanoma = test system: M14 melanoma
MALME-3M melanoma = test system: MALME-3M melanoma
MCF7 breast = test system: MCF7 breast
MDA-MB-231 breast = test system: MDA-MB-231 breast
MDA-MB-435 = test system: MDA-MB-435
MDA-N = test system: MDA-N
MOLT-4 leukemia = test system: MOLT-4 leukemia
NCI-H226 lung = test system: NCI-H226 lung
NCI-H23 lung = test system: NCI-H23 lung
NCI-H460 lung = test system: NCI-H460 lung
NCI-H522 lung = test system: NCI-H522 lung
NCI/ADR-RES ovarian = test system: NCI/ADR-RES ovarian
OVCAR-3 ovarian = test system: OVCAR-3 ovarian
OVCAR-4 ovarian = test system: OVCAR-4 ovarian
OVCAR-5 ovarian = test system: OVCAR-5 ovarian
OVCAR-8 ovarian = test system: OVCAR-8 ovarian
PC-3 prostate = test system: PC-3 prostate
RPMI-8226 leukemia = test system: RPMI-8226 leukemia
RXF 393 renal = test system: RXF 393 renal
SF-268 CNS = test system: SF-268 CNS
SF-295 CNS = test system: SF-295 CNS
SF-539 CNS = test system: SF-539 CNS
SK-MEL-2 melanoma = test system: SK-MEL-2 melanoma
SK-MEL-28 melanoma = test system: SK-MEL-28 melanoma
SK-MEL-5 melanoma = test system: SK-MEL-5 melanoma
SK-OV-3 ovarian = test system: SK-OV-3 ovarian
SN12C renal = test system: SN12C renal
SNB-19 CNS = test system: SNB-19 CNS
SNB-75 CNS = test system: SNB-75 CNS
SR leukemia = test system: SR leukemia
SW-620 colon = test system: SW-620 colon
T-47D breast = test system: T-47D breast
TK-10 renal = test system: TK-10 renal
U251 CNS = test system: U251 CNS
UACC-257 melanoma = test system: UACC-257 melanoma
UACC-62 melanoma = test system: UACC-62 melanoma
UO-31 renal = test system: UO-31 renal

Measured: GI50

CCC#CC(O)(C(=O)OC1CC2CCC(C1)N2C)c1ccccc1 (centres undefined)
inactive: 786-0 renal > 100 µM | A498 renal > 100 µM | A549 NSCLC > 100 µM | ACHN renal > 100 µM | BT-549 breast > 100 µM | CAKI-1 renal > 100 µM | CCRF-CEM leukemia > 100 µM | COLO 205 colon > 100 µM | DU-145 prostate > 100 µM | EKVX NSCLC > 100 µM | HCC-2998 colon > 100 µM | HCT-116 colon > 100 µM | HCT-15 colon > 100 µM | HL-60(TB) leukemia > 100 µM | HOP-62 NSCLC > 100 µM | HOP-92 NSCLC > 100 µM | HS 578T breast 43.3 µM | HT29 colon > 100 µM | IGROV1 ovarian > 100 µM | K-562 leukemia > 100 µM | KM12 colon > 100 µM | LOX IMVI melanoma > 100 µM | M14 melanoma > 100 µM | MALME-3M melanoma > 100 µM | MCF7 breast > 100 µM | MDA-MB-231 breast > 100 µM | MDA-MB-435 = > 100 µM | MDA-N > 100 µM | MOLT-4 leukemia > 100 µM | NCI-H226 lung > 100 µM | NCI-H23 lung > 100 µM | NCI-H460 lung > 100 µM | NCI-H522 lung > 100 µM | NCI/ADR-RES ovarian > 100 µM | OVCAR-3 ovarian > 100 µM | OVCAR-4 ovarian > 100 µM | OVCAR-5 ovarian > 100 µM | OVCAR-8 ovarian > 100 µM | PC-3 prostate > 100 µM | RPMI-8226 leukemia > 100 µM | RXF 393 renal > 100 µM | SF-268 CNS > 100 µM | SF-295 CNS > 100 µM | SF-539 CNS > 100 µM | SK-MEL-2 melanoma > 100 µM | SK-MEL-28 melanoma > 100 µM | SK-MEL-5 melanoma > 100 µM | SK-OV-3 ovarian > 100 µM | SN12C renal > 100 µM | SNB-19 CNS > 100 µM | SNB-75 CNS > 100 µM | SR leukemia > 100 µM | SW-620 colon > 100 µM | T-47D breast > 100 µM | TK-10 renal > 100 µM | U251 CNS > 100 µM | UACC-257 melanoma > 100 µM | UACC-62 melanoma > 100 µM | UO-31 renal > 100 µM
